Sequences of proteins named here, by UniProt entry; tags and fusion partners are left off. Residues count along the entry.
UniProt P41594, 21-1212 limits assumed: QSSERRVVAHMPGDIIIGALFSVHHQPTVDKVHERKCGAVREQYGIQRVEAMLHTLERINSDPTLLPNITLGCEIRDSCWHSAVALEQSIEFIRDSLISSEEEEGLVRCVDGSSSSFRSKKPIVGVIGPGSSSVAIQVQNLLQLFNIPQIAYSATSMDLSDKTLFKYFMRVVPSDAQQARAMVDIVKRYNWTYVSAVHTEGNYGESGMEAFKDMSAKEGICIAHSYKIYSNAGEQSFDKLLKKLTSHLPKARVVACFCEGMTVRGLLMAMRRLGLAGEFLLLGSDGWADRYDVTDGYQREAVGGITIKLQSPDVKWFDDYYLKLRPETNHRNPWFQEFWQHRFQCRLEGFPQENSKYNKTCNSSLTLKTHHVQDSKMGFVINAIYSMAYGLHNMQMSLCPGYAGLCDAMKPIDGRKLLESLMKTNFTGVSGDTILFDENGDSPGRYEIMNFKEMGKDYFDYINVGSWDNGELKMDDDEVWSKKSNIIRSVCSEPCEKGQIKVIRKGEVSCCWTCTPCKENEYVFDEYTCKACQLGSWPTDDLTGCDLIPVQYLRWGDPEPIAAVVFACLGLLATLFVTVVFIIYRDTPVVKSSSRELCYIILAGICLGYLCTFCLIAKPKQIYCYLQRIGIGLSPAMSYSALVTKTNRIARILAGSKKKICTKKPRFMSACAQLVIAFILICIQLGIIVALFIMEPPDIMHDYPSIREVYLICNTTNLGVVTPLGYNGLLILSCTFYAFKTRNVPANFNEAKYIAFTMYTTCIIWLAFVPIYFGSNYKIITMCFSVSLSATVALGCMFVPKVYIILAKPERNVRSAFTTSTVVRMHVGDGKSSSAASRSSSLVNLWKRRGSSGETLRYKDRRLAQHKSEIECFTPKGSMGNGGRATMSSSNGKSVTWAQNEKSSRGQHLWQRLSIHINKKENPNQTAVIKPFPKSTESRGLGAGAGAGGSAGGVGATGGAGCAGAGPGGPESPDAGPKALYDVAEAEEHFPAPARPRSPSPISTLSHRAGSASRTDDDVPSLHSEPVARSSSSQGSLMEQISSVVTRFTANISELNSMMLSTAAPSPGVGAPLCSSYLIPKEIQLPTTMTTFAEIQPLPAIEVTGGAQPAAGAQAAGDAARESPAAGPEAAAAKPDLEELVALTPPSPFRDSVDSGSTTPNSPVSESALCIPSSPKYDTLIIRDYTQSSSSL

In patent US8822464B2, “N-aryl-piperazine derivatives and their use as positive allosteric modulators of mGluR5 receptors” (Boehringer Ingelheim International GmbH, priority 2011, dated 2014):

Molecular target: human recombinant mGluR5 (Homo sapiens, UniProt P41594)
Assay: positive modulation of mGluR5, calcium based FLIPR assay in HEK 293 cells
Conditions: read-out: EC50 of the modulation; HEK 293 cell line expressing human recombinant mGluR5; peak height of Ca release fluorescence signal after glutamate at approximately 5% basal stimulation; nonlinear regression
Description: The positive modulation of mGluR5 is measured in a HEK 293 cell line expressing human recombinant mGluR5 and is detected with calcium based FLIPR assay. The cells are cultured with DMEM supplemented with 10% FCS, 2 μg/mL tetracycline, 100 μg/mL hygromycin and 500 μg/mL gneticin. The cell culture media is exchanged for tetracycline-free cell culture media 3-7 days before the assay. One day before the assay the cell culture medium is exchanged to DMEM without glutamine and phenol red and supplemented with 10% FCS, 100 μg/mL hygromycin and 500 μg/mL geneticin. On the assay day, the medium of the subconfluent cultures is removed and the cells are detached by addition of 2.5 ml EDTA(0.02%) per 175 cm2 culture flask for 1 minute. […]
20 μl of each compound solution are then transferred to the assay plate and the Ca2+ kinetic is measured to determine any intrinsic compound activity. After 5 min incubation in the FLIPR device, the second stimulation with 20 μl of glutamate in Ringer solution (glutamate concentration adjusted to approximately 5% basal stimulation of the maximal possible glutamate effect) is added and the kinetic Ca2+ response of the wells was measured for the modulation effect.
The peak height of the Ca release related fluorescence signal (9-66) is used for the EC50. The EC50 of the modulation is calculated over a nonlinear regression with GraphPad Prism (Table 1).

EC50: 0.029 µM
SMILES: Cc1ccc(-c2cc(-c3ccccc3)n(CC(=O)N3CCN(c4ccccn4)CC3)n2)nc1C
